Molecular target: σ receptors (Cavia porcellus, UniProt Q60492)
Experiment: biochemical
Assay type: binding
Conditions: [3H]3-PPP 2 nM, guinea-pig total brain membrane, 90 min, 25° C., pH 8.5

Amino acid sequences for entries named in this document (tags omitted).
UniProt Q60492, whole entry: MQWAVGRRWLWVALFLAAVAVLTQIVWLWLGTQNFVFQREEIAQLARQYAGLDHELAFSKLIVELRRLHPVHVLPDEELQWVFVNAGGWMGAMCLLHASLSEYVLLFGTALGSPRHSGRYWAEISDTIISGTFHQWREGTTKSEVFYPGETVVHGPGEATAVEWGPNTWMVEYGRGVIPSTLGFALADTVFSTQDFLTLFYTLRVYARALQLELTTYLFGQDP

OC(CCCN1CCN(c2ncc(F)cn2)CC1)c1ccc(F)cc1 (stereo not shown) [reference compound]
IC50: 49 nM

Reference: patent publication US5643927A, “4-p-fluorobenzoyl-1-piperidinyl-propoxy-chromen-4-one derivatives, their preparation and their use in the treatment of psychosis and schizophrenia” (Ferrer Internacional, S.A., priority 1994, dated 1997)
